According to patent publication US12053465B2, “KCC2 expression enhancing compounds and uses thereof” (Whitehead Institute for Biomedical Research, priority 2017, dated 2024):

Assays:
[1] = test system: KCC2 expression (KCC2-2A-luciferase reporter); assay: KCC2-2A-luciferase reporter compound screening with RTT KCC2 reporter neurons; format: cell-based, human
Method: The RTT KCC2-2A-luciferase reporter neurons were treated with the test compounds from the LINCS kinase inhibitor library and IRSF SMART compound library and incubated before being lysed. The cell lysate was divided into two parts to measure luciferase signal (KCC2 translation) and Cell-Titer Glow (CTG, amount of ATP). The luciferase signal was normalized to CTG for each well, and the Luc/CTG ratio was normalized to the in-plate DMSO negative control to calculate fold change ratio.
Additional screens for reporter activation in the MECP2-null RTT human KCC2 reporter neurons (isogenic to the WT reporter cells used above) were performed with the LINCS and SMART libraries as well as the ICCB known bioactive library and identified hits as compounds with B score >3.
The cells were dissociated with Accutase and resuspended in 10 ml neuronal differentiation medium to count cells. The cells were then diluted to the final density of 200,000 to 500,000 cells/ml. Matrigel was added to the cell suspension at a dilution ratio of 1:300 to promote cell adhesion after plating. AraC was added to cell suspension at the concentration of 2 μM to inhibit cell division. […] The resulting single-cell suspension was counted using a Countess automated cell counter (Invitrogen Countess Automated Cell Counter, Catalog no. C10227). […]

[2] = test system: KCC2 expression (KCC2-2A-luciferase reporter); assay: KCC2-2A-luciferase reporter compound screening with wild type KCC2 reporter neurons; format: cell-based, human
Excerpt: In addition, CRISPR/Cas9 genome editing technology was utilized to insert a 2A-luciferase reporter gene directly before the stop codon of the endogenous KCC2 locus in human ES cells, thus creating wild type (WT) cells isogenic to the MECP2-null RTT human KCC2 reporter neurons. KCC2 expression reporter human neurons were differentiated from the gene-targeted ES cells and utilized as the substrate for unbiased compound screening (FIG. 6A; see also FIG. 1A).
Gene-targeted KCC2 reporter cells were used in a HTS pipeline to screen for small molecule compounds that enhance KCC2 gene expression (FIG. 1B; note that reporter neurons were adapted to 384 well format for some screens, and the same workflow was used both for WT KCC2 reporter neurons and RTT KCC2 reporter neurons). Six replicate screens were performed in WT KCC2 reporter neurons using the LINCS and SMART libraries as well as the ICCB known bioactive library (FIG. 6B).
The cells were dissociated with Accutase, resuspended in 10 ml neuronal differentiation medium to count cells. the final cell seeding density was 20 k-40 k cells per well for 96-well plates, and ˜10 k cells per well for 384-well plates. […]
For some screens, on the day of the luciferase assay, the cells were washed with PBS three times using a BioTek EL406 plate washer. […] Assay readouts were performed on a Tecan M1000 Infinite plate reader. […]

O=C1NC(=O)C(c2ccccc2[N+](=O)[O-])=C1Nc1ccc(O)c(Cl)c1 [SB-415286, 3-[(3-Chloro-4-hydroxyphenyl)-amino]-4-(2-nitrophenyl)-1H-pyrrol-2,5-dione]
B Score [1]: 5.58
B Score [2]: 5.58
